# Ab-14 light chain CDR variants: yeast mating affinities

From the AlphaSeq antibody data of Li et al. 2023 (doi:10.1038/s41467-023-39022-2), copy in the FLAb collection.

The target is the same throughout: PDVDLGDISGINAS, from the HR2 region of SARS-CoV-2 spike.

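The parent was found by panning a naive human phage display library on the peptide. This is the validation round: designs drawn from the data on random variants, tested in the same kind of assay. Their group label is 14L_Ctrl (Ctrl: baseline library sampled from a position-specific scoring matrix, with some repeated check sequences). The scFvs were displayed on barcoded MATa yeast, the peptide on MATalpha yeast. Binding brings cells together so that they mate, and sequencing counts the barcode pairs among the diploids. The ratio of observed to expected reads was calibrated, replicate by replicate, on BCL2-family standards whose Kd was known from biolayer interferometry. Each pool was mated in six replicate cultures.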

Each scFv is VH, the linker GGGGSGGGGSGGGGS, VL, as in the parent Ab-14, and differs from it in the CDRs of the light chain only.
VH: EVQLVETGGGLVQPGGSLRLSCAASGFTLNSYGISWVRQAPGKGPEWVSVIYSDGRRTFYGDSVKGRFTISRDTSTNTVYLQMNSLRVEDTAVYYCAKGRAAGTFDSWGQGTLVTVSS
VL: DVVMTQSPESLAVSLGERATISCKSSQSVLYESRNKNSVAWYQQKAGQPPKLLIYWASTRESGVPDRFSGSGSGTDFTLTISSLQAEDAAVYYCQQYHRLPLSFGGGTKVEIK

Variants are written as CDR1, CDR2 and CDR3 of the light chain (limits as in the source). Parent: KSSQSVLYESRNKNSVA, WASTRES, QQYHRLPLS.
Scale: log10 of Kd in nM, estimated from mating counts; low values are strong binders.
The mean shown is taken over the replicates in which the pair was detected.
"nd" means that the variant was in the library but no mating with the target was seen in that replicate; the authors take this as a sign of poor binding, and no number exists.

CDR-L1,CDR-L2,CDR-L3,"log10 Kd, replicates","mean, log10 nM",empty controls
KSSQDVLYESRNKNSVA,WASTRES,QQYARLPLS,nd / 1.66 / 2.44 / 2.14 / 1.77 / 2.79,2.16,0 of 18
KLSQSVLYESRNKNSVA,KASTKER,QQYARLPLS,0.59 / 0.55 / 0.54 / 0.49 / 0.78 / 0.63,0.59,0 of 18
KSSQWVLYISRNKNSVA,TASTRES,QQYHRLPLS,nd / nd / nd / nd / nd / nd,nd,0 of 18
KSSQSVLSESRNKNSVA,WASTRYS,QQYHRLPLS,nd / 2.60 / nd / 4.22 / nd / 2.30,3.04,1 of 18 (2.54)
KSSQSVLDESRNKNSVA,RASTRES,QQYHRLPLS,1.61 / 1.79 / 1.20 / 1.46 / 1.15 / 1.09,1.38,0 of 18
KLSQSVLYESRNKNSVA,AASTRVS,QQYHRLPLS,-0.11 / -0.20 / -0.30 / -0.44 / -0.01 / -0.17,-0.20,0 of 18
KSSPSVLYESRNKHSVA,DASTRES,QQYHRLPLS,0.00 / -0.45 / -0.64 / -0.55 / -0.38 / -0.53,-0.43,0 of 18
KSMQSVLYNSLNKNSVA,WASTRES,VQYHRLPLS,nd / nd / nd / nd / 0.01 / nd,0.01,0 of 18
KISQSVMYESRNKNSVA,WASVRES,QQYHHLPLS,0.70 / 0.67 / 0.61 / 0.63 / 0.41 / 1.05,0.68,0 of 18
KSSQSVLYESRNKNPVA,SASTRES,QQYHRLPLF,2.51 / 1.83 / 2.25 / 2.08 / 1.96 / 1.60,2.04,1 of 18 (2.44)
KSSQSVLVEQYNKNSVA,GASTRES,QQYHRLPES,2.15 / nd / nd / nd / nd / nd,2.15,0 of 18
KSSDSVLYESMNKNNVC,WASTRES,QQYHRLPIS,2.78 / nd / nd / 4.34 / nd / nd,3.56,2 of 18 (2.17)
KISQNVLYESRNKNSVA,WASTRES,QQYHRLPIS,1.92 / 1.23 / 0.43 / 1.76 / nd / 1.22,1.31,0 of 18
KSEQSVSYESRNKNSVA,WASTRES,QQYHRLPLS,1.71 / 1.70 / 1.25 / 1.04 / 1.56 / 2.54,1.63,2 of 18 (1.62)
MSQQSVLYEHRNENSVA,DASTRES,QQPHRLPLS,2.13 / nd / nd / nd / 4.08 / nd,3.11,0 of 18
KSSQSCLYESRNKNSVA,QASTRES,QQYHPLPLL,2.71 / nd / nd / nd / nd / nd,2.71,0 of 18
KSSQSVLYDSRNKNSVA,TASTRES,QQYHRLPLS,0.32 / 0.14 / -0.15 / 0.89 / -0.42 / 0.31,0.18,1 of 18 (2.85)
KSSQSGLYESREKNSVA,NASVRES,QIYARWPGS,nd / nd / nd / nd / nd / nd,nd,0 of 18
KSSQSQLYETDNKNSVA,WASTREE,NQYHRLPLS,nd / nd / nd / nd / nd / nd,nd,0 of 18
KSSQSVLYESRNKNSVA,WASTRAS,QQYCRLPLS,1.51 / 0.59 / nd / 1.37 / nd / nd,1.16,1 of 18 (2.45)
KLSQSVLYESRNKNSVA,WASTRES,QVYHRLPLS,2.78 / 2.12 / 1.82 / 2.84 / nd / 2.86,2.48,4 of 18 (2.72)
KSSQSMLYESQNKNSVA,WASTRES,QQYHRLPLS,1.25 / 0.38 / 0.30 / 0.62 / 0.74 / 0.66,0.66,2 of 18 (2.14)
KSSPSVLSESTNKNSVA,WASTRES,QQYHRLPLS,1.29 / 1.33 / 1.31 / 3.61 / 1.64 / 1.61,1.80,1 of 18 (2.35)
KSSQSVLMESRNKNSVA,MASTREE,QQYHRLPLS,0.80 / 0.66 / 0.44 / 0.75 / 0.52 / 0.94,0.69,1 of 18 (2.42)
KSSQSTTTESRNKNSVA,AASTRES,QQYHRLPLS,0.03 / -0.17 / 0.00 / -0.31 / 0.02 / 0.02,-0.07,1 of 18 (3.23)
KSSQDCLYESRNKWSVA,WASERES,QQYHRLPLS,0.64 / 0.66 / 0.56 / 0.29 / 0.19 / 0.34,0.45,3 of 18 (2.34)
KSSQSVLYESRNKNQVA,WASTRES,QTYHRLPLS,nd / nd / nd / nd / nd / nd,nd,0 of 18
KSSQSVLYESRNKNSVA,RASTRES,QGYHRLPLS,nd / nd / 1.57 / nd / nd / nd,1.57,0 of 18
KSSQSVLYESENKNPVA,WASTRES,QQYHRYPLS,2.33 / 3.36 / 2.64 / 2.09 / 2.68 / 3.25,2.72,1 of 18 (3.31)
KSSQSTLYGSRNKNSVA,NADTRES,QQYHRLCLP,nd / nd / nd / nd / nd / nd,nd,1 of 18 (1.33)
KSSISVLYESRNKNSVA,GASTREH,QQYHRLPLS,0.79 / 0.86 / 0.50 / 0.65 / 0.57 / 0.99,0.73,0 of 18
KSSQSVLYESQNKNSVA,WASTRES,QQYHRDPLS,nd / nd / nd / 2.38 / nd / 2.30,2.34,0 of 18
KSSQSVPYESRSKNSVA,SASTRES,QQYHRLPLS,0.67 / 0.51 / 0.54 / 0.86 / 1.00 / 0.93,0.75,1 of 18 (3.10)
KSSQMVEYESRNKNSVA,AASTCES,QQYHRLPLS,1.86 / 2.41 / 2.35 / 2.01 / 3.55 / 2.22,2.40,1 of 18 (2.34)
KSSPSVFYESRNAVSVA,WASTRES,QQYHRKPLS,nd / nd / nd / nd / nd / nd,nd,1 of 18 (0.90)
KLSQSVLYESRCKNSVA,WATTRES,QQYPRPPLS,nd / 2.49 / nd / 2.54 / 2.51 / 2.16,2.42,1 of 18 (2.86)
KFSQSVLYESRNKNNVA,WAQTRES,QQYHRLPLS,0.41 / 0.19 / 0.39 / 0.47 / 0.31 / 0.55,0.39,1 of 18 (2.84)
KISQQVLYESSLKNSVA,MAGTRES,QQYHRLPPS,nd / nd / nd / nd / nd / nd,nd,0 of 18
KSSQSVLYESENKNSVA,WVSTRES,QTYHRLPLS,nd / nd / nd / 2.82 / nd / nd,2.82,1 of 18 (2.64)
KSIQSVLYEERNKNSVA,WASTRES,QQYHRLPLS,1.99 / nd / nd / 2.71 / 3.02 / 2.61,2.58,0 of 18
KSSQSVLTESRNFNSVA,AASTRES,QQYHRNPNS,0.04 / 0.45 / 0.08 / 0.04 / 0.49 / 0.19,0.22,1 of 18 (3.82)
KSSQSVLYESRNKNNVA,MASTREC,QQYHRLPLS,nd / 1.97 / 0.81 / 1.64 / 1.09 / 2.11,1.52,0 of 18
KSSVSVDFESRNKNSVA,GASTCES,QQYHRLPLS,0.82 / 0.75 / 0.31 / 0.10 / 0.60 / 0.61,0.53,0 of 18
KTPPSVMYESRNKRSVA,SAYTRES,QQYHRLPLS,nd / 0.87 / nd / 2.32 / nd / 1.29,1.49,0 of 18
KKSQSSLYESRAKNSVA,EASTRES,QQYHRLPLS,nd / nd / nd / nd / 1.44 / 1.45,1.44,0 of 18
KSSQSVLYESRCKNSVA,WASTREN,QQYSRLPLS,nd / 1.30 / 1.94 / nd / 1.54 / 1.80,1.65,0 of 18
KSSQSVLYESMNKNSVA,KASTRES,QQYERLPLS,0.77 / 0.60 / 0.40 / 0.75 / 1.03 / 1.12,0.78,0 of 18

A selection of 6 entries from above:

CDR-L1,CDR-L2,CDR-L3,"log10 Kd, replicates","mean, log10 nM",empty controls
KSSQSVLYESRNKNNVA,MASTREC,QQYHRLPLS,nd / 1.97 / 0.81 / 1.64 / 1.09 / 2.11,1.52,0 of 18
KLSQSVLYESRNKNSVA,KASTKER,QQYARLPLS,0.59 / 0.55 / 0.54 / 0.49 / 0.78 / 0.63,0.59,0 of 18
KSSQSTLYGSRNKNSVA,NADTRES,QQYHRLCLP,nd / nd / nd / nd / nd / nd,nd,1 of 18 (1.33)
KSIQSVLYEERNKNSVA,WASTRES,QQYHRLPLS,1.99 / nd / nd / 2.71 / 3.02 / 2.61,2.58,0 of 18
KSSQMVEYESRNKNSVA,AASTCES,QQYHRLPLS,1.86 / 2.41 / 2.35 / 2.01 / 3.55 / 2.22,2.40,1 of 18 (2.34)
KSSQSCLYESRNKNSVA,QASTRES,QQYHPLPLL,2.71 / nd / nd / nd / nd / nd,2.71,0 of 18

Of ten entries with the parent sequence, four were seen in most replicates (averages 0.34 to 2.37), three in one and three in none, so single entries are noisy.
The authors' rule: three or more of the six replicates give a measured affinity, fewer mean a poor binder.
As a blank, each scFv also met three strains without target: over all light chain designs, 4% of these pairings were detected, typically at 2.64 and seldom below 1.59. For each scFv, signals with the empty controls are counted beside the result, with their mean in brackets.
The range of this assay differs from that of the first round, and the authors advise against merging the two.